Earlier results in patent publication US20080119530A1, “Method for treatment and prevention of ultraviolet light induced skin pathologies” (priority 2006, published 2008).

Key:
p27 = conditions: cited from earlier work
[1] = current Erbb2-targeted therapies; cited from earlier work

Substance: trastuzumab: current Erbb2-targeted therapy; Erbb2 antagonist
- p27 expression (p27): increase
- skin toxicity [1]: Low incidence
